Here are results for 78 compounds from PubChem BioAssay AID1347075 (National Center for Advancing Translational Sciences (NCATS), 2019).

The list shows a part of the results, in another mix than the full data. Records with an inconclusive call do not appear. Activity calls are given as the source filed them. Calls follow the shape of the dose curve; as a rule, active = well fitted cell-killing curve with a large enough effect; inconclusive = small, poorly fitted or top-dose-only effect, or effect the other way; inactive = flat fitted curve, though single readings scatter.
% is scaled to controls: 0 for no effect and ±100 for the full control effect; potency is read from the fitted curve at half-maximal effect.

A short description of the assay: qHTS assay for MDR1-selective chemotherapeutics: Primary screen using the parental adenocarcinoma cell KB-3-1. Also: nearly all actives have a fitted effect of over 60% in size. Conditions: KB-3-1 viability, CellTiter-Glo ATP luminescence, 72 h; series mostly up to 46.1 µM; activity change, negative = cytotoxic: at the top concentration. The source says:
A prime difficulty in effectively treating cancer is the development of cellular resistance to multiple structurally unrelated anticancer drugs, a phenomenon known as multidrug resistance (MDR). […] Numerous strategies to overcome P-gp-mediated MDR have been explored, including the design of drugs that evade recognition and efflux, and development of inhibitors to block efflux and restore drug accumulation. […] An alternative approach is to exploit resistance by identifying drugs that target MDR cells over the non-resistant parental cells from which they were selected. […] The development of MDR1-selective agents represents a new strategy for resolving multidrug resistance, as it remains a long-standing clinical challenge for cancer chemotherapy.
Our goal is to identify compounds that selectively kill P-gp-expressing MDR cells. We will identify MDR1-selective compounds by comparing toxicity of compounds in the screening library against parental, drug-naive (KB-3-1) adenocarcinoma cells as well as their drug-selected MDR sub-line (KB-V1). The differential toxicity of compounds against these two cell lines will be used to identify MDR1-selective compounds, whose cytotoxicity is potentiated, rather than diminished, by P-gp expression. This assay will be utilized to conduct a quantitative high-throughput screen (qHTS) in collaboration with the NIH Chemical Genomics Center to identify selective agents, and probe hits arising from the screen will be validated using secondary assays and characterized through a well-established follow-up research program. This screen was run against the entire NCGC library collection of about 400,000 compounds.
NIH Molecular Libraries Probe Production Network [MLPCN]
NIH Chemical Genomics Center [NCGC]
PI: Michael Gottesman PhD, National Cancer Institute, NIH
Briefly, 5 microL of media containing either KB-3-1 cells (columns 1-2, 4-48) are dispensed into Greiner white, treated solid-bottom 1536-well assay plates (media-only control is added to column 3). Compounds are then transferred via Kalypsys pin tool equipped with 1536-pin array (10 nL slotted pins, V&P Scientific, San Diego, CA). Following addition of compound, the plates are incubated at 37 degrees C for 72 hours. CellTiter-Glo (2.5 µL/well) is then added, and the plates are read in a ViewLux reader (Perkin-Elmer, clear luminescence filter, 1 second exposure, 1x binning) following a 10 minute incubation. All cells are dispensed in DMEM phenol-red free media containing 10% FBS.
Library plates were screened starting from the lowest and proceeding to the highest concentration. Vehicle-only plates, with DMSO being pin-transferred to columns 5-48, will be inserted uniformly at the beginning and the end of each library in order to monitor and record any shifts in the background, which can be affected by reagent dispensers or loss in enzyme activity over time. Screening data will be corrected, normalized, and concentration-effect relationships will be derived by using publicly-available NCGC, NCATS curve fitting algorithms (http://ncgc.nih.gov/pub/openhts).
(Quantitative high-throughput screening tests each substance at several concentrations.)
As to `O=[N+]([O-])c1ncn(CCn2ncnc2[N+](=O)[O-])n1`, the “activity change, negative = cytotoxic” value is inactive: 2.21%. Take `CC(C)(C)C(=O)NC(Sc1ccncn1)C(Cl)(Cl)Cl` (stereo not drawn): the “activity change, negative = cytotoxic” value is inactive: -1.35%. On the same count and under the same terms, to `O=C(O)CNc1ccc([As](=O)(O)O)cc1` belongs inactive: 0.167%. The same measure, in the same setting: to `COC(=O)C1(C)COP(=O)(Nc2ccccc2)OC1` (stereo not drawn) belongs inactive: 21.8%; to `O=[N+]([O-])c1cccc(NC2=NCC(CBr)S2)c1` (stereo not drawn), inactive: 0.802%; to `Cc1cc(C=O)ccc1N(CCCl)CCCl`, inactive: 4.65%. Still for that read-out and setting: then `O=P1(N(CCCl)CCCl)OCCCS1` (stereo not drawn), with inactive: 0.159%; and `O=P(/N=c1/nc(-c2ccccc2)n(-c2ccccc2)s1)(Nc1ccccc1)Nc1ccccc1`, with inactive: -38.3%. Take `O=C(Nc1cc([As](=O)(O)O)ccc1O)c1ccccc1`: the “activity change, negative = cytotoxic” value was inactive: 2.45%.

In the case of `CCN(/C(=N/P(=O)(N1CCOCC1)N1CCOCC1)N1CCOCC1)c1ccc(OC)cc1`, the “activity change, negative = cytotoxic” value is inactive: 1.38%. As for `Nc1ccc([As](=O)(O)c2ccc(N)cc2)cc1`, the “activity change, negative = cytotoxic” value was inactive: 12.1%. On the same count and under the same terms, then `CC1CCN(C(=O)Oc2c(Cl)cc(Cl)c3cccnc23)CC1`, with inactive: -13.7%. The same measure, in the same setting: then `c1cc(-c2nn[nH]n2)ccc1-c1nn[nH]n1`, with inactive: -9.8%; and `COc1cc([N+](=O)[O-])c([N+](=O)[O-])cc1OC`, with inactive: -0.618%; and `CC(C)c1nc(Nc2ccccc2)n(P(=O)(N(C)C)N(C)C)n1`, with inactive: -17.1%. For `CC(C)=N/N=C(\N)N[N+](=O)[O-]`, the “activity change, negative = cytotoxic” value was inactive: 13.1%. On the same count and under the same terms, then `CN(C)C(=O)OCCc1n(C)cc[n+]1C`, with inactive: 9.17%; and `COc1ccc(C2=NCC(CBr)S2)cc1` (stereo not drawn), with inactive: 4.32%. On the same count and under the same terms, then `Cc1ccc(NP(=O)(Oc2ccccc2)Oc2ccccc2)nc1`, with inactive: 4.21%.

With `O=[N+]([O-])c1cc([N+](=O)[O-])c(CCNc2ccccc2)c([N+](=O)[O-])c1`, the “activity change, negative = cytotoxic” value was inactive: -3.17%. On the same count and under the same terms, to `O=[N+]([O-])c1cccc2n[nH]nc12` belongs inactive: 4.05%; to `CC(=O)N1C2C3N(C(C)=O)C1C1N(C(C)=O)C(C(N1C(C)=O)N3C(C)=O)N2C(C)=O`, inactive: 16.1%.

Regarding `Oc1ccccc1CNc1ccccn1`, the “activity change, negative = cytotoxic” value is inactive: 9.02%. For `O=C(NC(Sc1ccncn1)C(Cl)(Cl)Cl)c1ccccc1` (stereo not drawn), the “activity change, negative = cytotoxic” value was inactive: 5.51%. On the same count and under the same terms, to `Nc1cc(N)c2nonc2c1[N+](=O)[O-]` belongs inactive: -2.45%; to `CC(C)CC(=O)NC(Sc1ccc(Cl)cc1)C(Cl)(Cl)Cl` (stereo not drawn), inactive: -1.21%. For the compound `O=[N+]([O-])C1C(O)C(O)C([N+](=O)[O-])C(O)C1O` (stereo not drawn), the “activity change, negative = cytotoxic” value is inactive: 0%. Same read-out and setting: to `CN(C(=O)Cc1ccc(Cl)c(Cl)c1)[C@H]1CCCC[C@H]1N1CCCC1` belongs inactive: -0.295%; to `Cc1ccc(N/C(=N/P(=O)(N2CCOCC2)N2CCOCC2)N2CCOCC2)cc1`, inactive: -1.47%. Same read-out and setting: then `CN1CCCC(OC(=O)C(c2ccccc2)c2ccccc2)C1` (stereo not drawn), with inactive: -0.32%; and `Clc1ccc(Cl)c(NC2=NCC(CBr)S2)c1` (stereo not drawn), with inactive: -2.3%; and `COc1ccccc1OP(=O)(Nc1ccc(C)cn1)Oc1ccccc1OC`, with inactive: 13.6%. On the same count and under the same terms, then `Cc1ccc(OP(=O)(Nc2nccs2)Oc2ccc(C)cc2)cc1`, with inactive: -4.89%; and `Nc1c(O)cc([N+](=O)[O-])cc1[N+](=O)[O-]`, with inactive: 1.18%. For `Nc1cccc2ccc([As](=O)(O)O)cc12`, the “activity change, negative = cytotoxic” value was inactive: 5.68%. The same measure, in the same setting: to `CCN(N=Nc1nonc1N)c1nonc1N` belongs inactive: 16.7%; to `O=P(Nc1nc2ccc(Cl)cc2s1)(c1ccccc1)c1ccccc1`, inactive: 0%; to `CN(C)P(=O)(N(C)C)n1c(Nc2ccccc2)nnc1-c1ccccc1`, inactive: 0%. Same read-out and setting: then `CC(=O)Nc1ccc([As](=O)(O)O)cc1`, with inactive: 10.7%; and `O=C(O)c1ccccc1[As](=O)(O)O`, with inactive: -1.91%; and `CCCC1OP(N)(=O)OCC1CC` (stereo not drawn), with inactive: -2.03%.

Consider `Cc1cc(SC(NC(=O)c2ccc(F)cc2)C(Cl)(Cl)Cl)ncn1` (stereo not drawn), for which the “activity change, negative = cytotoxic” value was inactive: 4.33%.

Regarding `CCOP(=O)(Nc1ccccc1)OCC`, the “activity change, negative = cytotoxic” value was inactive: 12.9%. Still for that read-out and setting: to `Cc1ccc(NP(=O)(Oc2ccccc2F)Oc2ccccc2F)nc1` belongs inactive: -0.76%; to `CN(C(=O)Cc1ccc(Cl)c(Cl)c1)[C@H]1CCCC[C@@H]1N1CCCC1`, inactive: -0.108%. The same measure, in the same setting: to `O=C(OC1CN2CCC1CC2)c1ccccc1` (stereo not drawn) belongs inactive: 4.22%; to `CCC(=O)N1C2C3N(C(=O)CC)C1C1N(C(=O)CC)C(C(N1C(=O)CC)N3C(=O)CC)N2C(=O)CC`, inactive: 6.69%. On the same count and under the same terms, then `COC(=O)c1cc2c(s1)N=C(c1ccccc1)N(C)P2(=O)N1CCOCC1` (stereo not drawn), with inactive: 2.81%; and `CC(=O)NC(SC(=S)N(CC(C)C)CC(C)C)C(Cl)(Cl)Cl` (stereo not drawn), with inactive: 10.7%. Consider `Cc1ccc(OP(=O)(Nc2ccccn2)Oc2ccc(C)cc2)cc1`, for which the “activity change, negative = cytotoxic” value was inactive: -4.68%. On the same count and under the same terms, then `CC(NC(=O)COC(=O)C(O)(c1ccccc1)c1ccccc1)c1ccccc1` (stereo not drawn), with inactive: -0.57%; and `Cc1ccccc1OP(=O)(Nc1ccccn1)Oc1ccccc1C`, with inactive: -7.97%. With `CN(C)C(=O)Oc1noc2ccccc12`, the “activity change, negative = cytotoxic” value is inactive: 0.637%. Same read-out and setting: to `c1ccc(-c2nn[nH]n2)c(-c2nn[nH]n2)c1` belongs inactive: -4.58%; to `Cc1ccc(NP(=O)(Oc2cccc(C)c2)Oc2cccc(C)c2)nc1`, inactive: 1.45%.

For `O=[N+]([O-])c1cc([N+](=O)[O-])c2nc[nH]c2c1`, the “activity change, negative = cytotoxic” value was inactive: 10%. Same read-out and setting: then `CCNC(=S)/N=C(\N)N[N+](=O)[O-]`, with inactive: -3%. For the compound `O=C(NC1CCS(=O)(=O)C1)NP(=S)(Oc1ccccc1)Oc1ccccc1` (stereo not drawn), the “activity change, negative = cytotoxic” value is inactive: 3.45%. Still for that read-out and setting: to `O=P1(N(CCCl)CCCl)OCCC2CCCCN21` (stereo not drawn) belongs inactive: -6.24%; to `Cc1ccccc1CN(C)C(=O)COC(=O)C(O)(c1ccccc1)c1ccccc1`, inactive: 7.02%.

On to `C[C@H]1OP(=O)(Oc2ccccc2)C[C@@H]2O[C@@H]21` (stereo partly drawn), for which the “activity change, negative = cytotoxic” value was inactive: 8.77%.

For the compound `C[C@@H]1C=CCP(=O)(Oc2ccccc2)O1` (stereo partly drawn), the “activity change, negative = cytotoxic” value was inactive: 12.7%.

For the compound `CC(=O)c1ccc(N2CC2c2ccncc2)cc1` (stereo not drawn), the “activity change, negative = cytotoxic” value is inactive: 15.1%.

With `COC(=O)C1(C)COP(=O)(NCc2ccccc2)OC1` (stereo not drawn), the “activity change, negative = cytotoxic” value was inactive: 3.8%. Still for that read-out and setting: then `CC(=O)Nc1ccc([As](=O)(O)O)c(O)c1`, with inactive: 10.1%; and `CC(=O)Nc1ccc(Oc2c([N+](=O)[O-])cc([N+](=O)[O-])cc2[N+](=O)[O-])cc1`, with inactive: 12.7%; and `O=P1(Nc2nc3ccc(Cl)cc3s2)COc2ccccc2O1` (stereo not drawn), with inactive: 3.39%. As to `CCOc1ccc(C2=NCC(CBr)S2)cc1` (stereo not drawn), the “activity change, negative = cytotoxic” value is inactive: 8.61%. On the same count and under the same terms, to `CC(C)(C)C(=O)NC(Sc1ccccc1)C(Cl)(Cl)Cl` (stereo not drawn) belongs inactive: 7.94%; to `CCc1cc(O)c([N+](=O)[O-])c(C)c1[N+](=O)[O-]`, inactive: 0%.

On to `COc1cccc([N+](=O)[O-])c1[N+](=O)[O-]`, for which the “activity change, negative = cytotoxic” value was inactive: 18.3%.

Take `CC(C)C(=O)NC(Sc1ccccc1)C(Cl)(Cl)Cl` (stereo not drawn): the “activity change, negative = cytotoxic” value is inactive: 16.7%. The same measure, in the same setting: then `O=P(Nc1nccs1)(c1ccccc1)c1ccccc1`, with inactive: 2.92%; and `c1nnnn1CCn1cnnn1`, with inactive: 15.1%.

`O=[As](O)(c1ccccc1)c1ccc(O)cc1`: the “activity change, negative = cytotoxic” value is inactive: -5.88%.

Consider `O=[N+]([O-])c1ccc(O)c(/C=N/Nc2ccc([N+](=O)[O-])cc2[N+](=O)[O-])c1`, for which the Potency was active: 5.8 µM. For the compound `CC(=O)NC(SC(=S)N(C)C)C(Cl)(Cl)Cl` (stereo not drawn), the “activity change, negative = cytotoxic” value is inactive: -4.16%. The same measure, in the same setting: to `O=[N+]([O-])c1ncn(CCn2cnc([N+](=O)[O-])n2)n1` belongs inactive: 1.31%.
